## AlphaSeq binding of Ab-95 light chain variants to a spike HR2 peptide

The target is the same throughout: PDVDLGDISGINAS, from the HR2 region of SARS-CoV-2 spike.

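The parent was found by panning a naive human phage display library on the peptide. Variants in AAYL52 differ from the parent at up to three CDR positions; double and triple changes were sampled at random. In AlphaSeq, yeast of one mating type display the scFv and yeast of the other type display the target. Mating (16 h, 30 °C) was followed by selection of diploids and sequencing of their barcodes. Read counts were normalised to the haploid input and turned into Kd by a linear fit to BCL2-family pairs of known affinity, for each replicate. Each pool was mated in three replicate cultures.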

Parent scFv Ab-95: VH joined to VL by three GGGGS repeats. Changes lie in the light chain CDRs alone.
VH: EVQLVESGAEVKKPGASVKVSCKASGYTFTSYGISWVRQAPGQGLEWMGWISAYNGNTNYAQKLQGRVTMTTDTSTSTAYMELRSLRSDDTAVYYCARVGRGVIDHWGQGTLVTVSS
VL: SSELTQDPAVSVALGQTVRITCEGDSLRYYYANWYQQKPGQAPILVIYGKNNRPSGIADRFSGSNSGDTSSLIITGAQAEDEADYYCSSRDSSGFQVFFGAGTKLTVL

Each variant is given by its three light chain CDRs, as the data file delimits them; those of the parent are EGDSLRYYYAN, GKNNRPS, SSRDSSGFQVF. Numbers give log10(Kd / nM), so 0 is 1 nM and 3 is 1 µM. Smaller is tighter. Averages over replicates are reported, and they cover detected replicates only. "n.d." means that the variant was in the library but no mating with the target was seen in that replicate; the authors take this as a sign of poor binding, and no number exists. In this assay the parent's reference entry averaged 2.31; its copy inside this library read 2.25.

| # | CDR-L1 | CDR-L2 | CDR-L3 | replicates, log10 nM | log10 Kd (nM), mean | signal with controls |
|---|---|---|---|---|---|---|
| 1 | EKDSLRYYYQN | GKNNRPS | SSRDSSGFQVF | 3.54 3.10 2.83 | 3.16 | 1 of 9 (4.09) |
| 2 | EGDSLRYYYHN | GKNNRPC | SSRDNSGFQVF | n.d. 4.77 n.d. | 4.77 | 0 of 9 |
| 3 | EGYSLGYYYAN | FKNNRPS | SSRDSSGFQVF | n.d. 3.72 3.30 | 3.51 | 1 of 9 (3.52) |
| 4 | EGDSLRYYYAN | GKNNRPN | SSRYSSGHQVF | 2.56 2.81 3.38 | 2.92 | 4 of 9 (3.77) |
| 5 | EGISLRPYYAN | GKNNRPS | SSRDSSGFQVH | 2.42 2.73 2.15 | 2.43 | 3 of 9 (3.79) |
| 6 | ERDSLRYCYAN | GKNSRPS | SSRDSSGFQVF | 3.47 n.d. 3.95 | 3.71 | 2 of 9 (2.95) |
| 7 | EGDALYYYYAN | GPNNRPS | SSRDSSGFQVF | 2.63 3.29 2.89 | 2.94 | 3 of 9 (4.06) |
| 8 | EGDSTRYYYAN | GKNNRPS | SSRDSSGFPVY | 2.69 2.46 2.87 | 2.67 | 5 of 9 (3.89) |
| 9 | EGDSYRYYYAN | GMNNRPS | SSRDSSGFTVF | 4.82 n.d. 3.05 | 3.94 | 4 of 9 (4.53) |
| 10 | EGDSQRYYYAN | GKNNRPS | SSRDASGFQVF | 2.95 2.55 3.12 | 2.87 | 6 of 9 (3.90) |
| 11 | EGASLRYYYAN | GKNSRPS | SSCDSSGFQVF | 2.74 2.96 3.35 | 3.02 | 1 of 9 (4.48) |
| 12 | ERDSLRYYYAN | GKNNRPS | SSRDSEGFVVF | 4.11 n.d. n.d. | 4.11 | 3 of 9 (3.74) |
| 13 | EGDSLRFYKAN | GKNNRPS | SSRDSSGFQCF | 2.23 2.43 1.51 | 2.06 | 4 of 9 (4.17) |
| 14 | EGDFLQYYYAN | GKINRPS | SSRDSSGFQVF | 3.26 5.60 n.d. | 4.43 | 1 of 9 (4.14) |
| 15 | EGDSLRYEYAN | GKVNRPS | SSRDPSGFQVF | 2.49 2.47 2.05 | 2.33 | 2 of 9 (4.00) |
| 16 | EGDSLRAYYAN | GKNNRPS | SSRQSEGFQVF | n.d. n.d. n.d. | n.d. | 3 of 9 (3.32) |
| 17 | VGDSLRYYYAN | GKVNRPR | SSRDSSGFQVF | 3.74 3.47 3.48 | 3.56 | 4 of 9 (3.76) |
| 18 | EYDSLRYYYAN | GKNNRPS | SSRHRSGFQVF | n.d. n.d. 4.19 | 4.19 | 1 of 9 (4.10) |
| 19 | EGDSLRGYYAN | GKNNRPS | SSRDMSGFQVF | 1.26 1.18 1.03 | 1.16 | 2 of 9 (4.12) |
| 20 | EGDSLLYYYAN | GKNNQPS | SSRDSGGFQVF | n.d. n.d. n.d. | n.d. | 3 of 9 (3.12) |
| 21 | EYRSLRYYYAN | GKNNFPS | SSRDSSGFQVF | 4.37 n.d. 3.51 | 3.94 | 5 of 9 (4.06) |
| 22 | EGDSLRYYLAN | PKNNRPS | SLRDSSGFQVF | 3.95 3.65 n.d. | 3.80 | 4 of 9 (3.59) |
| 23 | EGSSLRYYYAN | IKNNRPS | SSRDLSGFQVF | n.d. n.d. n.d. | n.d. | 5 of 9 (3.28) |
| 24 | EGLSLRYYYAN | GECNRPS | SSRDSSGFQVF | n.d. n.d. n.d. | n.d. | 3 of 9 (4.83) |
| 25 | EGDSLRYYYAN | GKNARPS | SSFDSSGFQVK | n.d. 4.53 n.d. | 4.53 | 3 of 9 (4.06) |
| 26 | EGDSLRGYYAN | GKNNRTS | SSRDDSGFQVF | 2.78 2.60 3.25 | 2.88 | 4 of 9 (4.32) |
| 27 | EGDSLRYYYAN | GFNVRPS | SSRDSSGFCVF | 3.62 3.36 2.95 | 3.31 | 1 of 9 (3.42) |
| 28 | EGDSLTMYYAN | GKNCRPS | SSRDSSGFQVF | 2.75 4.24 4.63 | 3.87 | 2 of 9 (4.54) |
| 29 | EGDSHWYYYAN | GKNNRPQ | SSRDSSGFQVF | 2.31 2.86 2.35 | 2.51 | 2 of 9 (3.61) |
| 30 | ENDSLRYYYAN | GKNNRPS | SSRDSSGFDVW | 4.48 n.d. 2.94 | 3.71 | 4 of 9 (3.49) |
| 31 | EGDSGRYYYAN | GKNCRPS | SSRDSSGMQVF | 3.16 2.86 3.44 | 3.15 | 6 of 9 (4.13) |
| 32 | TGDSLRYYYLN | GKNNRPS | ESRDSSGFQVF | 3.13 4.61 3.91 | 3.88 | 3 of 9 (4.28) |
| 33 | EGFSLRYYYAN | GKNNRPD | SSRRSSGFQVF | 3.54 n.d. n.d. | 3.54 | 1 of 9 (3.66) |
| 34 | EGDSLRYYYAP | GKPNRPS | SSRDPSGFQVF | 4.40 5.41 4.58 | 4.80 | 3 of 9 (4.56) |
| 35 | EGDSLRYYYAN | GKNNRKS | SSRDWSIFQVF | 2.90 2.74 n.d. | 2.82 | 2 of 9 (3.79) |
| 36 | GGDSLRYYYAT | GKNNRPS | SSRTSSGFQVF | 3.96 n.d. n.d. | 3.96 | 2 of 9 (3.92) |
| 37 | EGDSLRYYYAN | GKNNRPS | SSRDSSYFQVF | 2.28 2.35 2.45 | 2.36 | 2 of 9 (3.71) |
| 38 | EGDSLRYYYAN | GKNNRPS | SSLDSSHFQLF | n.d. n.d. 2.16 | 2.16 | 5 of 9 (3.45) |

As a blank, each scFv also met three strains without target: over library AAYL52, 28% of these pairings were detected, typically at 3.91 and seldom below 2.90. Also given: how often the same scFv was detected with the empty control strains, with their mean in brackets.

Source: Engelhart et al. 2022 (doi:10.1038/s41597-022-01779-4), MIT Lincoln Laboratory and A-Alpha Bio; data file from the FLAb repository.